Source: patent US6890716B1, “Recombinant cell line and screening method for identifying agents which regulate apoptosis and tumor suppression” (Howard Hughes Medical Institute, priority 1998, dated 2005)

Test system: p53A cells
Assay: Apoptotic morphology of transfected cells by indirect immunofluorescence at the permissive temperature
Format: cell-based, rat
Conditions: 10 μg plasmid DNA, permissive temperature (FIG. 14)
Description: Cell viability was measured by trypan blue staining. Cells were trypsinized, centrifuged, resuspended in PBS, and counted using a hemocytometer after diluting in trypan blue. Apoptotic morphology was assessed by scoring for cells that are positive by fluorescence microscopy and are rounded and non adherent. Cell morphology was also documented by photography at 100× magnification on a Nikon phase-contrast microscope and camera using Kodak film.
Cells were fixed in cold methanol prior to incubation with primary antibodies. Subsequent to several washes in PBS, cells were incubated with rhodamine-conjugated goat anti-mouse antibody or fluorescein-conjugated goat anti-rabbit antibody. Cells were then washed, mounted and analyzed by fluorescence microscopy using a Nikon FXA epifluorescence microscope.
The indicated amount of plasmid DNA was transfected by electroporation. […]
In addition, we determined the percentage of cells with apoptotic morphology that were ectopically expressing wild-type p300 ectopically or the E1A-binding mutant of p300 following transient transfection with 24 μg of plasmid DNA. Apoptotic morphology was determined by counting cells that were rounded in shape and detaching from the dish. […]

## wild-type mdm2: Wild-type mdm2 expressed from pCMVβ-X2 (pCOC-X2)
  percentage of apoptotic cells among expressing cells: 10%
